Data: patent publication US9884868B2, “TGF-beta inhibitors” (Rigel Pharmaceuticals, Inc., priority 2015, dated 2018)

Sequences of proteins named here, by UniProt entry; tags and fusion partners are left off. Residues count along the entry.
UniProt P36897, 34-503 T204D: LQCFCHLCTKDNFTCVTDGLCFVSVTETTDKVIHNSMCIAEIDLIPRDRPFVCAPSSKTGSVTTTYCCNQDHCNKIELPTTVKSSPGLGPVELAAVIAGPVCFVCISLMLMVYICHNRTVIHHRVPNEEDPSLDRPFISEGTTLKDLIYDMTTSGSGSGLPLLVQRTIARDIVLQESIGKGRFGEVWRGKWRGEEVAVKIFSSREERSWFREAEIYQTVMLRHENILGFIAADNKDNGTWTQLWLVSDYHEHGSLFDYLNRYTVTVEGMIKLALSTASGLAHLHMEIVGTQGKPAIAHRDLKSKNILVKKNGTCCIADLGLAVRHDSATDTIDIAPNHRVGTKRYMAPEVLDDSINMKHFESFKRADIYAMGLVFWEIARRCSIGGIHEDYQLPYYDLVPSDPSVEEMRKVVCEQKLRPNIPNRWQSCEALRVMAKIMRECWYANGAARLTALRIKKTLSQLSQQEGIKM

Target: HIS-TGF-βR1 T204D (Homo sapiens (Human), UniProt P36897, T204D)
Assay: HTRF probe displacement assay with HIS-TGF-βR1 T204D
Settings: read-out: TGFbr1 IC50, 1 nM HIS-TGF-βR1 T204D, 1 hour at room temperature

| Compound | IC50 [nM] |
| --- | --- |
| N#Cc1cnc2ccc(-c3c(-c4ccc(F)cc4)ncn3C3CC(F)(F)C3)nn12 [3′, 6-(1-(3,3-difluorocyclobutyl)-4-(4-fluorophenyl)-1H-imidazol-5-yl)imidazo[1,2-b]pyridazine-3-carbonitrile] | 14.2 |
| N#Cc1cnc2ccc(-c3c(-c4cccc(-c5ccccc5)c4)ncn3CC(F)F)nn12 [257′, 6-(4-([1,1′-biphenyl]-3-yl)-1-(2,2-difluoroethyl)-1H-imidazol-5-yl)imidazo[1,2-b]pyridazine-3-carbonitrile] | 64.2 |
| N#Cc1cnc2ccc(-c3c(-c4ccc(F)cc4C(F)(F)F)ncn3CC(F)F)nn12 [261′, 6-(1-(2,2-difluoroethyl)-4-(4-fluoro-2-(trifluoromethyl)phenyl)-1H-imidazol-5-yl)imidazo[1,2-b]pyridazine-3-carbonitrile] | 89.4 |
| CC(=O)N1CCn2c(nc(-c3ccc(F)cc3)c2-c2ccc3ncc(C(N)=O)n3c2)C1 [292′, 6-(7-acetyl-2-(4-fluorophenyl)-5,6,7,8-tetrahydroimidazo[1,2-a]pyrazin-3-yl)imidazo[1,2-a]pyridine-3-carboxamide] | 40.8 |

These reach a lower IC50. Values come first.

| IC50 [nM] | Compound |
| --- | --- |
| 4.9 | NC(=O)c1cnc2ccc(-c3c(-c4ccc(F)cc4)ncn3C3CC(F)C3)nn12 (stereo not drawn) [127′, 6-(1-(3-fluorocyclobutyl)-4-(4-fluorophenyl)-1H-imidazol-5-yl)imidazo[1,2-b]pyridazine-3-carboxamide] |
| 10.2 | N#CCN1CC(n2cnc(-c3ccc(F)cc3)c2-c2ccc3ncc(C#N)n3n2)C1 [Example 194′, 6-(1-(1-(cyanomethyl)azetidin-3-yl)-4-(4-fluorophenyl)-1H-imidazol-5-yl)imidazo[1,2-b]pyridazine-3-carbonitrile] |
